Results published in patent US7138389B2, “Oral androgen therapy using modulators of testosterone bioavailability” (University of Washington, priority 2004, dated 2006).

Assay: Example 1: open-label single-dose study of oral testosterone 400 mg with finasteride or dutasteride, fasting or fed
Conditions: in vivo
Description: Study Design. The study was divided into a screening period, a two-week drug exposure period, and a one-month recovery period (see FIG. 1, Experimental Design). At screening, study investigators performed an interview and physical examination; blood samples for measurement of hormones (testosterone, DHT, Estradiol (E2), FSH and LH), routine hematology, chemistry and hepatic function tests were collected. No drugs were administered in the control period.
Subjects will come in on day 5 for a brief blood draw. There was no drug administration on days 5 or 6.
The administration of the testosterone on days 1, 4 and 10 took place while the subjects were eating breakfast with at least 15 grams of fat.
After treatment day 11, subjects underwent a final assessment on day 28–42.

C[C@]12C=CC(=O)N[C@@H]1CC[C@@H]1[C@@H]2CC[C@]2(C)[C@@H](C(=O)Nc3cc(C(F)(F)F)ccc3C(F)(F)F)CC[C@@H]12 [dutasteride, (5′,17β)-N-[2,5-Bis(trifluoromethyl)phenyl]-3-oxo-4-azaandrost-1-ene-17-carboxamide]
lowering serum DHT levels, compared with finasteride: more effective
